This is an account of results in patent US20050250765A1, “Diazepinones as antiviral agents” (priority 2000, published 2005).

One test has as its system recombinant HSV-1, Us3::Tn5-lacZ. The test is described as follows: microbe, parasite or virus in culture. The class given is cell-based, herpes simplex I virus (HSV-1). The following applies: Human alphaherpesvirus 1, Vero, 20 h, Vero cell monolayer, infection 20 hours, β-galactosidase readout.
One may read the EC50 as the concentration giving half of the maximal effect. Turning to `COc1ccc2sc3c(c2c1)N(Cc1ccc(C#N)cc1)CCN(C)C3=O` [AA4, 4-(3-Methoxy-8-methyl-9-oxo-6,7,8,9-tetrahydro-10-thia-5,8-diaza-benzo[a]azulen-5-ylmethyl)-benzonitrile], the EC50 was found to be 440 nM.

On to `COc1ccc2sc3c(c2c1)NCCNC3=O` [B, 3-Methoxy-5,6,7,8-tetrahydro-10-thia-5,8-diaza-benzo[a]azulen-9-one], for which the EC50 came out at 103 nM. Same read-out and setting: next, `COc1cccc(CN2CCNC(=O)c3sc4ccc(OC)cc4c32)c1` [C, 3-Methoxy-5-(3-methoxy-benzyl)-5,6,7,8-tetrahydro-10-thia-5,8-diaza-benzo[a]azulen-9-one]: 0.2 nM; `C=C(C)CN1CCNC(=O)c2sc3ccc(F)cc3c21` [CC5, 3-Fluoro-5-(2-methyl-allyl)-5,6,7,8-tetrahydro-10-thia-5,8-diaza-benz[a]azulen-9-one]: 80 nM. For `CCCN1CCNC(=O)c2sc3ccc(OCC)cc3c21` [D, 3-Ethoxy-5-propyl-5,6,7,8-tetrahydro-10-thia-5,8-diaza-benzo[a]azulen-9-one], the EC50 stood at 80 nM. With `CCCCN1CCNC(=O)c2sc3ccc([N+](=O)[O-])cc3c21` [DD, 5-n-Butyl-3-nitro-5,6,7,8-tetrahydro-10-thia-5,8-diaza-benz[a]azulen-9-one], the half-maximal effective concentration (EC50) amounted to 50 nM. On the same count and under the same terms, next, `COc1cccc(CN2CC(C)NC(=O)c3sc4ccc(OC)cc4c32)c1` (stereo not drawn) [EE2, 3-Methoxy-5-(3-methoxy-benzyl)-7-methyl-5,6,7,8-tetrahydro-10-thia-5,8-diaza-benzo[a]azulen-9-one]: 29 nM; `O=C1NCCNc2c1ccc1cnccc21` [F, 8,9,10,11-Tetrahydro-3,8,11-triaza-cyclohepta[a]naphthalen-7-one]: 55 nM. On the same count and under the same terms, the value for `CN1CCNC(=O)c2ccc3cnccc3c21` [GG4, 11-Methyl-8,9,10,11-tetrahydro-3,8,11-triaza-cyclohepta[a]naphthalen-7-one] was 350 nM; that for `COc1ccc(CN2CC(C)(C)NC(=O)c3sc4ccc(OC)cc4c32)cc1` [K, 3-Methoxy-5-(4-methoxy-benzyl)-7,7-dimethyl-5,6,7,8-tetrahydro-10-thia-5,8-diaza-benzo[a]azulen-9-one] was 150 nM; that for `C=C(Cl)CN1CCNC(=O)c2sc3ccc(OC)cc3c21` [MM3, 5-(2-Chloro-allyl)-3-methoxy-5,6,7,8-tetrahydro-10-thia-5,8-diaza-benzo[a]azulen-9-one] was 2 nM.

`COc1ccc2sc3c(c2c1)NC(Cc1ccccc1)CNC3=O` (stereo not drawn) [PP2, 6-Benzyl-3-methoxy-5,6,7,8-tetrahydro-10-thia-5,8-diaza-benzo[a]azulen-9-one]: the concentration for a half-maximal effect (EC50) was 10 nM. Regarding `C=C(C)CN1CCNC(=O)c2sc3ccc([N+](=O)[O-])cc3c21` [Q, 5-(2-Methyl-allyl)-3-nitro-5,6,7,8-tetrahydro-10-thia-5,8-diaza-benz[a]azulen-9-one], the EC50 worked out at 80 nM. The same measure, in the same setting: the value for `CC(C)CN1CCNC(=O)c2sc3ccc(S(C)(=O)=O)cc3c21` [RR2, 5-Isobutyl-3-methanesulfonyl-5,6,7,8-tetrahydro-10-thia-5,8-diaza-benz[a]azulen-9-one] was 520 nM.

Turning to `COc1ccc2sc3c(c2c1)N(Cc1ccc([N+](=O)[O-])cc1)CCNC3=O` [SS3, 3-Methoxy-5-(4-nitro-benzyl)-5,6,7,8-tetrahydro-10-thia-5,8-diaza-benzo[a]azulen-9-one], the half-maximal effective concentration (EC50) was found to be 210 nM.

Consider `CCCN1CC(C)(C)NC(=O)c2sc3ccc(OC)cc3c21` [TT, 3-Methoxy-7,7-dimethyl-5-propyl-5,6,7,8-tetrahydro-10-thia-5,8-diaza-benzo[a]azulen-9-one], for which the EC50 amounted to 2 nM. On to `C=CCN1CCNC(=O)c2sc3ccc([N+](=O)[O-])cc3c21` [U, 5-Allyl-3-nitro-5,6,7,8-tetrahydro-10-thia-5,8-diaza-benz[a]azulen-9-one], for which the half-maximal effective concentration (EC50) was under 100 nM. On the same count and under the same terms, next, `COc1cccc(CN2CCNC(=O)c3sc4ccc([N+](=O)[O-])cc4c32)c1` [V, 5-(3-Methoxy-benzyl)-3-nitro-5,6,7,8-tetrahydro-10-thia-5,8-diaza-benz[a]azulen-9-one]: 100 nM; `COc1ccc2sc3c(c2c1)N(Cc1ccccc1C)CCNC3=O` [WW3, 3-Methoxy-5-(2-methyl-benzyl)-5,6,7,8-tetrahydro-10-thia-5,8-diaza-benzo[a]azulen-9-one]: 32 nM. Regarding `COc1ccc2oc3c(c2c1)N(CCC(C)C)CCNC3=O` [YY5, 3-Methoxy-5-(3-methyl-butyl)-5,6,7,8-tetrahydro-10-oxa-5,8-diaza-benzo[a]azulen-9-one], the concentration giving a half-maximal response (EC50) amounted to 30 nM.

The test is the same for the next values; noted with them: Vero cell monolayer, infection 20 hours, β-galactosidase readout.
Regarding `COc1cccc(CN2CC(C)NC(=O)c3sc4ccc(OC)cc4c32)c1` (stereo not drawn) [O, 3-Methoxy-5-(3-methoxy-benzyl)-7-methyl-5,6,7,8-tetrahydro-10-thia-5,8-diaza-benzo[a]azulen-9-one], the 50% effective concentration (EC50) was 15 nM.
